{
  "source": "patent US9174937B2",
  "about": "“Crystal form of glycopyrronium chloride” (dated 2015)",
  "key": {"[1]": {"assay": "Hygroscopicity in the solid state"}, "[2]": {"assay": "Investigation of the effect of milling (ball milling, XRPD comparison)", "details": "Retsch MM 200 grinder, 30 Hz, XRPD overlappable with reference"}},
  "data": [
    {"substance": "[(cyclopentylhydroxyphenylacetyl)oxy]-1,1-dimethylpyrrolidinium chloride", "values": [
      {"measurement": "hygroscopicity", "setting": "[1]", "result": "hygroscopic"},
      {"measurement": "degree of crystallinity after milling (XRPD pattern of ground sample vs reference pattern)", "setting": "[2]", "result": "substantially unchanged"}
    ]}
  ]
}
